T1: human GITR on cells (activated human T cells; 3A9-hGITR cells) (human, UniProt Q9Y5U5 26-241)
T1 sequence (looked up): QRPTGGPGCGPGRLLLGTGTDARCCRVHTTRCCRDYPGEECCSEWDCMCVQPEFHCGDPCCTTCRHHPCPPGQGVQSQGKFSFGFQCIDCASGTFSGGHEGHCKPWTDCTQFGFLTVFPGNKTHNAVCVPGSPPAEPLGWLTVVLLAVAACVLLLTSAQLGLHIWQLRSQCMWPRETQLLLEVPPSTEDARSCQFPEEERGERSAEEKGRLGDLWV


Biological target: T1, human GITR on cells (activated human T …)
Assay: cell-based or functional assay

Row | Binder | EC50 (nM), phospho-p65 NFkB signaling, CD4+ T cells | EC50 (nM), phospho-p65 NFkB signaling, CD8+ T cells | Emax (%), phospho-p65 NFkB signaling, CD4+ T cells | Emax (%), phospho-p65 NFkB signaling, CD8+ T cells
1 | anti-GITR-IgG2-IgG1 (antibody) heavy: QVQLVESGGGVVQPGRSLRLSCAASGFTFSSYGMHWVRQAPGKGLEWVAVIWYEGSNKYYADSVKGRFTISRDNSKNTLYLQMNSLRAEDTAVYYCARGGSMVRGDYYYGMDVWGQGTTVTVSSASTKGPSVFPLAPCSRSTSESTAALGCLVKDYFPEPVTVSWNSGALTSGVHTFPAVLQSSGLYSLSSVVTVPSSNFGTQTYTCNVDHKPSNTKVDKTVERKCCVE[human IgG1 Fc not written out] light: AIQLTQSPSSLSASVGDRVTITCRASQGISSALAWYQQKPGKAPKLLIYDASSLESGVPSRFSGSGSGTDFTLTISSLQPEDFATYYCQQFNSYPYTFGQGTKLEIKRTVAAPSVFIFPPSDEQLKSGTASVVCLLNNFYPREAKVQWKVDNALQSGNSQESVTEQDSKDSTYSLSSTLTLSKADYEKHKVYACEVTHQGLSSPVTKSFNRGEC | 9 nM | 3.77 nM | 100% | 92%
2 | anti-GITR-IgG1 (antibody) heavy: QVQLVESGGGVVQPGRSLRLSCAASGFTFSSYGMHWVRQAPGKGLEWVAVIWYEGSNKYYADSVKGRFTISRDNSKNTLYLQMNSLRAEDTAVYYCARGGSMVRGDYYYGMDVWGQGTTVTVSSASTKGPSVFPLAPSSKSTSGGTAALGCLVKDYFPEPVTVSWNSGALTSGVHTFPAVLQSSGLYSLSSVVTVPSSSLGTQTYICNVNHKPSNTKVDKKV[human IgG1 Fc not written out] light: AIQLTQSPSSLSASVGDRVTITCRASQGISSALAWYQQKPGKAPKLLIYDASSLESGVPSRFSGSGSGTDFTLTISSLQPEDFATYYCQQFNSYPYTFGQGTKLEIKRTVAAPSVFIFPPSDEQLKSGTASVVCLLNNFYPREAKVQWKVDNALQSGNSQESVTEQDSKDSTYSLSSTLTLSKADYEKHKVYACEVTHQGLSSPVTKSFNRGEC | 7.3 nM | 20.1 nM | 10.8% | 27%
